Reference: PubChem BioAssay AID893 (National Center for Advancing Translational Sciences (NCATS), 2007)
The entries are a selection whose mix differs from that of the whole data set. Records with an inconclusive call do not appear. Activity calls are given as the source filed them. Calls follow the shape of the dose curve; as a rule, active = well fitted inhibition curve with a large enough effect; inconclusive = small, poorly fitted or top-dose-only effect; inactive = no such curve, though single readings can be large or run the other way.

These molecules were tested against 3-hydroxyacyl-CoA dehydrogenase type-2 (Homo sapiens) (UniProt Q99714) (assay: qHTS Assay for Inhibitors of HSD17B4, hydroxysteroid (17-beta) dehydrogenase 4). Conditions: recombinant HSD17B10, NADH fluorescence kinetic; at 57.1 µM (top of the series).
% is scaled to controls: 0 for no effect and ±100 for the full control effect.
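Also: the protocol describes HADH2 (HSD17B10) and not the HSD17B4 of the title; nearly all actives have a fitted effect of over 70% in size.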

Row | Structure (SMILES) | activity change, negative = inhibition
1 | CN(CCCl)CCCl | inactive: 10.2%
2 | O=[N+]([O-])C(Cl)(Cl)Cl | inactive: 0.648%
